{
  "source": "paper PMC8838460",
  "about": "“Expression, Purification, and Comparative Inhibition of Helicobacter pylori Urease by Regio-Selectively Alkylated Benzimidazole 2-Thione Derivatives” (Molecules, 2022)",
  "origin": "cited, not measured here",
  "system": "Rat",
  "conditions": "TOPKAT structural similar compounds; ref FMCHA2 -;C190;89; cited from earlier work",
  "data": [
    {"smiles": "Cc1cccc(NC(=S)N(C)C)c1", "values": [
      {"measurement": "Actual Endpoint (-log C), Rat Oral LD50", "value": "1.946 -log C"}
    ]}
  ]
}
